Reference: ChEMBL document CHEMBL4118228, “Chemical space screening around Phe3 in opioid peptides: Modulating µ versus δ agonism by Suzuki-Miyaura cross-couplings” (Bioorg Med Chem Lett, 2018)

The chains behind the UniProt entries cited, without tags or fusion partners.
UniProt P33533, whole entry: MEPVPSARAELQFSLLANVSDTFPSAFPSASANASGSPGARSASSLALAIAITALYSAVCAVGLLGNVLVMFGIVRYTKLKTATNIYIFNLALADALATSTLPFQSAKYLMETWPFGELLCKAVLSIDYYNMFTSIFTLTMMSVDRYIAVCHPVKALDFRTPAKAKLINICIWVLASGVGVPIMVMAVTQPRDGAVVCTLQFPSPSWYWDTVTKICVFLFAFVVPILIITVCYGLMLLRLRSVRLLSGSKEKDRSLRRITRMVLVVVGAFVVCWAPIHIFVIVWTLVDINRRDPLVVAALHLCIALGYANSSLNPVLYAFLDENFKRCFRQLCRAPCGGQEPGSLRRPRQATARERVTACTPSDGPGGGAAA

Target: Delta-type opioid receptor (Rattus norvegicus, UniProt P33533)
Assay: Agonist activity at rat delta-opioid receptor expressed in HEK293 cells co-expressing Rluc2-EPAC-GFP10 biosenser assessed as inhibition of forskolin-induced cAMP level after 10 mins by fluorescence based assay
Assay type: functional, cell-based

Question: Which EC50 does the source give for `C[C@@H](NC(=O)[C@@H](N)Cc1ccc(O)cc1)C(=O)NCC(=O)N(C)[C@@H](Cc1ccccc1)C(=O)NCCO` [DAMGO] here?
Answer: 49 nM
